{"sequences": {"note": "By UniProt entry, the sequences of proteins in these tests, tags left out. Where a name states a change or a piece, a line headed by the entry shows the natural chain unless it says otherwise.", "UniProt P61169, whole entry": "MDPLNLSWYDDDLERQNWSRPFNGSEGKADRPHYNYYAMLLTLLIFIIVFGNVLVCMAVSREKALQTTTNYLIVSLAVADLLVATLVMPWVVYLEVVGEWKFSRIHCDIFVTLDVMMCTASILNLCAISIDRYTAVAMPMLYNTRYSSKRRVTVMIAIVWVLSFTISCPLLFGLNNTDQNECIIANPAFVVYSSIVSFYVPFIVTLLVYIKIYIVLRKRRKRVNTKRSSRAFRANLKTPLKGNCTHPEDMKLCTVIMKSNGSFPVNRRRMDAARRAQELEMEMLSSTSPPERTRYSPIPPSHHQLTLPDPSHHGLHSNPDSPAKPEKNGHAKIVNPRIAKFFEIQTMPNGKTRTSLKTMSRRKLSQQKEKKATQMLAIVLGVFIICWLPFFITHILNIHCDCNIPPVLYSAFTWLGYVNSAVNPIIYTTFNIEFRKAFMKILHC"}, "source": "patent US20070155720A1", "about": "(published 2007)", "molecular_target": "D2L receptor (Rattus norvegicus, UniProt P61169)", "assay": "biochemical", "data": [{"smiles": "Cl.Oc1cc2c(cc1O)[C@@H]1c3ccccc3CN[C@H]1CC2", "note": "(relative stereo) [Compound 6a, Trans-10,11-dihydroxy-5,6,6a,7,8,12b-hexahydrobenzo[a]phenanthridine hydrochloride]", "values": [{"measurement": "Ki", "result": 183, "unit": "nM"}]}]}
